Target: Acetylcholinesterase (Electrophorus electricus, UniProt O42275)
Experiment: Ellman Assay: The modified Ellman assay for inhibition of acetylcholinesterase (AChE) and the mouse ear vesication assay (MEVA) have been described in detail by us (see S. C. Young et al, J Appl Tox, 2012, 32: 135-141). AChE (Type V-S from electrophorus electricus), acetylthiocholine iodide (ATChI), 5,5′-dithiobis(2-nitrobenzoic acid) (DTNB) and tacrine from EMD Chemicals (Gibbstown, N.J.). Cholin

Sequences of proteins named here, by UniProt entry; tags and fusion partners are left off. Residues count along the entry.
UniProt O42275, 24-633 limits assumed: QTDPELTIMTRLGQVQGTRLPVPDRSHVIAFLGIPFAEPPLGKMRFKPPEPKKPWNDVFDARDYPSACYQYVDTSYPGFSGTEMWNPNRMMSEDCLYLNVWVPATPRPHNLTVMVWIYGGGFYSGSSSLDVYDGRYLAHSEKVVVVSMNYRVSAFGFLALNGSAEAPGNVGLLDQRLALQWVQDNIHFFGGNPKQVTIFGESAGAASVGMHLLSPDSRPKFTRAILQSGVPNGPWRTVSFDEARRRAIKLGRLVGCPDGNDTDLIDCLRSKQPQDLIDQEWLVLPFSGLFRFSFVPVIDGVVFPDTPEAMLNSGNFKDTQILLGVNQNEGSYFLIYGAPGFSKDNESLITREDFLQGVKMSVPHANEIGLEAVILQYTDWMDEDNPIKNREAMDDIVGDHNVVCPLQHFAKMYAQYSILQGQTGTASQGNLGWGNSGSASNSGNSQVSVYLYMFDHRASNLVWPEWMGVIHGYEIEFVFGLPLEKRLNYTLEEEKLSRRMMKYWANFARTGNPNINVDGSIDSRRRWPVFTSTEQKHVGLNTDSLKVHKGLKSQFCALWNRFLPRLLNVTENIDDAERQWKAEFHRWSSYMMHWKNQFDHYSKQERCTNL

Row | Structure (SMILES) | IC50
1 | CC(C)Cc1ccc(C(C)C(=O)N[C@H](C(=O)OCCC(C)(C)C)C(C)C)cc1 (stereo partly specified) | 8.91 µM
2 | COc1ccc2cc([C@H](C)C(=O)N[C@H](C(=O)OCCC(C)(C)C)C(C)C)ccc2c1 | 18.6 µM
3 | CC(C)Cc1ccc(C(C)C(=O)NCC(=O)OCCC(C)(C)C)cc1 (stereo unspecified) | 27.9 µM
4 | CC(C)(C)CCOC(=O)[C@@H]1CCCN1C(=O)Cc1ccccc1Nc1c(Cl)cccc1Cl | 15.4 µM
5 | COc1ccc2c(c1)c(CC(=O)NCC(=O)OCCC(C)(C)C)c(C)n2C(=O)c1ccc(Cl)cc1 | 6.63 µM
6 | CC(C)Cc1ccc(C(C)C(=O)N[C@@H](Cc2ccccc2)C(=O)OCCC(C)(C)C)cc1 (stereo partly specified) | 4.34 µM

Source: ChEMBL document CHEMBL5725257, “Augmenting moieties for anti-inflammatory compounds” (2016)
